Measured values from article PMC3066655 (Journal of medicinal chemistry, 2011).

Biological target: T1, σ2 receptor (Rattus norvegicus, UniProt Q5U3Y7)
T1 sequence (Q5U3Y7 1-176): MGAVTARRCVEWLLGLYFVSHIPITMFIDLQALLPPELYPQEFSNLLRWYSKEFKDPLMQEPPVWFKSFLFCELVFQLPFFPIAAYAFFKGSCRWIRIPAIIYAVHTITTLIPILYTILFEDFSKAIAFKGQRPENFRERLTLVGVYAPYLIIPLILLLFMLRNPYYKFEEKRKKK
Assay: σ2 receptor binding assay, [3H]-DTG, liver membrane homogenates

Question: O=C(NCCCCN1CCN(c2ccccc2OCCF)CC1)c1ccc(-c2ccsc2)cc1 [Compound 20e, 4-(Thiophen-3-yl)-N-(4-(4-(2-(2-fluoroethoxy)phenyl)piperazin-1-yl)butyl)benzamide] was tested. Which Ki did it give?
Answer: 5.96 µM
